What follows are molecules tested on IL2 (assay: IL2 ELISA). Conditions: IL2 production upon 18 hour co-culture with RAJI cells; Jurkat-NFAT-GFP cells.
Format: cell-based, human

| Molecule | IL2 [pg/mL] |
| --- | --- |
| 10492 (protein) MALPVTALLLPLALLLHAARPDVVMTQSPSSLSASVGDRVTITCRASQDISKYLNWYQQKPGKAPKLLIYHTSRLHSGVPSRFSGSGSGTDFTLTISSLQPEDFATYYCQQGNTLPYTFGGGTKVEIKLEDLKNVFPPEVAVFCPSEAEISHTQKATLVCLATGFYPDHVELSWWVNGKEVHSGVSTDPQPLKEQPALNDSRYCLSSRLRVSATFWQNPRNHFRCQVQFYGLSENDEWTQDRAKPVTQIVSAEAWGRADCGFTSESYQQGVLSATILYEILLGKATLYAVLVSALVLMAMVKRKDSRGRAKRSGSGATNFSLLKQAGDVEENPGPTSMDWIWRILFLVGAATGAHSFEQVQLQESGPGLVKPSQTLSLTCTVSGVSLPDYGVSWIRQPPGKGLEWIGVIWGSETTYYNSALKSRVLISVDTSKNQVSLKLSSVTAADTAVYYCARHYYYGGSYAMDYWGQGTTVTVSSTRIQNPDPAVYQLRDCKSSDKSVCLFTDFDSQTNVSQSKDSDVYITDKTVLDMRSMDFKSNSAVAWSNKSDFACANAFNNSIIPEDTFFPSPESSCDVKLVEKSFETDTNLNFQNLSVIGFRILLLKVAGFNLLMTLRLWSS | 0 |
| 10493 (protein) MALPVTALLLPLALLLHAARPDVVMTQSPSSLSASVGDRVTITCRASQDISKYLNWYQQKPGKAPKLLIYHTSRLHSGVPSRFSGSGSGTDFTLTISSLQPEDFATYYCQQGNTLPYTFGGGTKVEIKLEDLKNVFPPEVAVFEPSEAEISHTQKATLVCLATGFYPDHVELSWWVNGKEVHSGVSTCPQPLKEQPALNDSRYCLSSRLRVSATFWQNPRNHFRCQVQFYGLSENDEWTQDRAKPVTQIVSAEAWGRADCGFTSESYQQGVLSATILYEILLGKATLYAVLVSALVLMAMVKRKDSRGRAKRSGSGATNFSLLKQAGDVEENPGPTSMDWIWRILFLVGAATGAHSFEQVQLQESGPGLVKPSQTLSLTCTVSGVSLPDYGVSWIRQPPGKGLEWIGVIWGSETTYYNSALKSRVLISVDTSKNQVSLKLSSVTAADTAVYYCARHYYYGGSYAMDYWGQGTTVTVSSTRIQNPDPAVYQLRDSKSSDKSVCLFTDFDSQTNVSQSKDSDVYICDKTVLDMRSMDFKSNSAVAWSNKSDFACANAFNNSIIPEDTFFPSPESSCDVKLVEKSFETDTNLNFQNLSVIGFRILLLKVAGFNLLMTLRLWSS | 0 |
| 10494 (protein) MALPVTALLLPLALLLHAARPDVVMTQSPSSLSASVGDRVTITCRASQDISKYLNWYQQKPGKAPKLLIYHTSRLHSGVPSRFSGSGSGTDFTLTISSLQPEDFATYYCQQGNTLPYTFGGGTKVEIKLEDLKNVFPPEVAVFEPSEAEISHTQKATLVCLATGFYPDHVELSWWVNGKEVHSGVSTDPQPLKEQPALNDSRYCLCSRLRVSATFWQNPRNHFRCQVQFYGLSENDEWTQDRAKPVTQIVSAEAWGRADCGFTSESYQQGVLSATILYEILLGKATLYAVLVSALVLMAMVKRKDSRGRAKRSGSGATNFSLLKQAGDVEENPGPTSMDWIWRILFLVGAATGAHSFEQVQLQESGPGLVKPSQTLSLTCTVSGVSLPDYGVSWIRQPPGKGLEWIGVIWGSETTYYNSALKSRVLISVDTSKNQVSLKLSSVTAADTAVYYCARHYYYGGSYAMDYWGQGTTVTVSSTRIQNPDPAVYQLRDSKSSDKSVCLFTDFDSQTNVSQSKDSDVYICDKTVLDMRSMDFKSNSAVAWSNKSDFACANAFNNSIIPEDTFFPSPESSCDVKLVEKSFETDTNLNFQNLSVIGFRILLLKVAGFNLLMTLRLWSS | 0 |

Reference: patent US12269859B2, “Synthetic immune receptors and methods of use thereof” (Angeles Therapeutics, Inc., priority 2016, dated 2025)
